# Values quoted from earlier work, collected in article PMC4610673.
# By UniProt entry, the sequences of proteins in these tests, tags left out. Residues count along the entry.
# UniProt Q71F23, whole entry, looked up, tested part not stated: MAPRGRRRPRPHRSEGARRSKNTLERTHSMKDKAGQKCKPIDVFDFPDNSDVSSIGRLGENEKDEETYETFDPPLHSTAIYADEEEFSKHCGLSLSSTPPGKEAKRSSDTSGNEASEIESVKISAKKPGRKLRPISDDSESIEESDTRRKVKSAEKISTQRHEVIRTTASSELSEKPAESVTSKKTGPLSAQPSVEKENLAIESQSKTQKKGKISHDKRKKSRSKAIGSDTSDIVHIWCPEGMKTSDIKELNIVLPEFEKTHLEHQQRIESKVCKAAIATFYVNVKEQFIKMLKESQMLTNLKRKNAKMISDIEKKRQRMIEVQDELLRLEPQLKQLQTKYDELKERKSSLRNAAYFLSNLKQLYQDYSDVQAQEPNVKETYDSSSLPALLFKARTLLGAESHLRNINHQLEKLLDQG
# UniProt P53350, 371-603: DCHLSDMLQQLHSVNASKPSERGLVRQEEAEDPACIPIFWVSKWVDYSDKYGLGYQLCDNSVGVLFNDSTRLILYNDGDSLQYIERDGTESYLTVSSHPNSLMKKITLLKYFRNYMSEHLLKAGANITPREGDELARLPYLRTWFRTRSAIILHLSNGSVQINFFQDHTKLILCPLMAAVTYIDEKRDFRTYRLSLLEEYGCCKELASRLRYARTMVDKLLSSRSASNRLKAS
# Biological target: PBIP1 phosphopeptide PLHSpT (Homo sapiens) (UniProt Q71F23)
substance,measurement,value
Plk1 PBD (from UniProt P53350),Kd,450 nM
